Source: patent US20160008627A1, “METHODS AND DEVICES FOR VISIBLE LIGHT MODULATION OF MITOCHONDRIAL FUNCTION IN HYPOXIA AND DISEASE” (Clarimedix Inc., priority 2008, published 2016)
Read-outs that look alike come from different tables or passages of the source.

Columns and labels:
[1] = tested on: nuclear COX genes for Cco (COX4, COX5a, COX6, COX8); conditions: for Relative Expression: average combined expression of COX4, COX5a, COX6, COX8, normalized to PMAI, control = 1.00, 1 mM nitrite, light 3 doses of 6.4 J/cm^2
yeast cells = conditions: Hypoxia (1% O2); oxygen consumption vs control

Compound: O=NO [+Nitrite, nitrite]
- Fold Change (%) ([1]; Hypoxia (1% O2), COX gene expression vs control): −19.2%
- Relative Expression ([1]; Hypoxia (1% O2)): 0.808 ± 0.031
- Relative Expression ([1]; Normoxia): 1.024 ± 0.067
- Fold Change (%) (yeast cells): +3.7%
